From PubChem BioAssay AID2550 (Johns Hopkins Ion Channel Center, 2010)
Only a part is listed here, and it is no random draw. Some salts and complexes are drawn in separate pieces, as the source files them; their charges need not balance. The source made the active and inactive calls.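 The calls were made as follows: active = B-score of the integrated fluorescence ratio above library mean plus 3 SD, and starting fluorescence ratio within library mean plus 5 SD; inactive = the rest.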

Protein sequences, listed by entry. Tags and fused reporters are not part of them.
UniProt Q61143, whole entry: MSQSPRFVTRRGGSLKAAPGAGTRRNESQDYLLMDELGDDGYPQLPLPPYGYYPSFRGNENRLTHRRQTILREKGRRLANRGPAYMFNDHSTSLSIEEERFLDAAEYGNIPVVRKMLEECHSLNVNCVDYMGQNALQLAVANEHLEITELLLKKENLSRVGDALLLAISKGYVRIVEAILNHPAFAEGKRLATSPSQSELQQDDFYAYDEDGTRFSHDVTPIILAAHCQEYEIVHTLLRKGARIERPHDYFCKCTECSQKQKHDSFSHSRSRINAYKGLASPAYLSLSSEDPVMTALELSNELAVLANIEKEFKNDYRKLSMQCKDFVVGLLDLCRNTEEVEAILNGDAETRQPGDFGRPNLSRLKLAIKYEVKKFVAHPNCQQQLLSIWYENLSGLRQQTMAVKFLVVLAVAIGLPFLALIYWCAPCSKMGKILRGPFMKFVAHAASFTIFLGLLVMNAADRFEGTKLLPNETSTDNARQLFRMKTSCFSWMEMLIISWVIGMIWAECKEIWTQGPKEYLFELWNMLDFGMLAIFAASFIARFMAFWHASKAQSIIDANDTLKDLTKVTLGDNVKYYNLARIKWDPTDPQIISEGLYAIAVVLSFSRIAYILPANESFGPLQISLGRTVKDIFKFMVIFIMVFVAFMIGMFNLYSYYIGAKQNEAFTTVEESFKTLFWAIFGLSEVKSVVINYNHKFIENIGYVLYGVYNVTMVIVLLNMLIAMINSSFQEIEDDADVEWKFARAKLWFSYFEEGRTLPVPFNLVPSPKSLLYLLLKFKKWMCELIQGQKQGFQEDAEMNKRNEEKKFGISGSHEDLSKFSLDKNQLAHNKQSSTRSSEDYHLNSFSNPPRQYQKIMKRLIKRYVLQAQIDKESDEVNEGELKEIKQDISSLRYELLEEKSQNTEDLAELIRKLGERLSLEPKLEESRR

target: Short transient receptor potential channel 6 (Mus musculus) (UniProt Q61143); test: small molecules opening TRPC6 cation channel – cell-based, HEK293, membrane potential dye, primary screen (AID 2550); conditions: HEK293-TRPC6 membrane potential dye fluorescence; at 10 µM;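 also: higher score means more depolarization so channel activation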

| Compound | outcome |
| --- | --- |
| CCOc1ccc(C2=NCC(CBr)S2)cc1 (centres undefined) | inactive |
| O=P1(Nc2nc3ccc(Cl)cc3s2)COc2ccccc2O1 (centres undefined) | inactive |
| CC(C)c1ccc(OP(C)(=O)Nc2ccc(SC(F)(F)F)cc2)cc1 (centres undefined) | inactive |
| CC(C)(C)C(=O)NC(Sc1ccccc1)C(Cl)(Cl)Cl (centres undefined) | inactive |
| CP(=O)(Nc1ccccc1F)Oc1ccccc1 (centres undefined) | inactive |
| C[C@H]1OP(=O)(Oc2ccccc2)C[C@@H]2O[C@@H]21 (some centres undefined) | inactive |
| C[C@@H]1C=CCP(=O)(Oc2ccccc2)O1 (some centres undefined) | inactive |
| O=C(OCCN1CCN(CCOCc2ccccc2)CC1)C(O)(c1ccccc1)c1ccccc1 | inactive |
| O=C(OC1CN2CCC1CC2)c1ccc([N+](=O)[O-])cc1 (centres undefined) | inactive |
| CC(=O)c1ccc(N2CC2c2ccncc2)cc1 (centres undefined) | inactive |
| CC(=O)Nc1ccc(Oc2c([N+](=O)[O-])cc([N+](=O)[O-])cc2[N+](=O)[O-])cc1 | inactive |
| CC(=O)Nc1ccc([As](=O)(O)O)c(O)c1 | inactive |
| COc1ccc2c(c1O)-c1c(O)c(OC)cc3c1[C@H](C2)[N+](C)(C)CC3.O=[N+]([O-])c1cc([N+](=O)[O-])c([O-])c([N+](=O)[O-])c1[O-] | inactive |
| Cc1ccc(NP(=O)(Oc2cccc(C)c2)Oc2cccc(C)c2)nc1 | inactive |
| CCOC(=O)NC(Sc1ccccc1)C(Cl)(Cl)Cl (centres undefined) | inactive |
| c1ccc(-c2nn[nH]n2)c(-c2nn[nH]n2)c1 | inactive |
| O=C(NC1CCS(=O)(=O)C1)NP(=S)(Oc1ccccc1)Oc1ccccc1 (centres undefined) | inactive |
| CCNC(=S)/N=C(\N)N[N+](=O)[O-] | inactive |
| COc1ccc(OP(C)(=O)Nc2ccc(SC(F)(F)F)cc2)cc1 (centres undefined) | inactive |
| CCOC(=O)c1ccc(NP(C)(=O)Oc2ccc(F)cc2)cc1 (centres undefined) | inactive |
| CCC(=O)N1C2C3N(C(=O)CC)C1C1N(C(=O)CC)C(C(N1C(=O)CC)N3C(=O)CC)N2C(=O)CC | inactive |
| CCN(CC)CCCOC(=O)C(O)(c1ccccc1)C1CCCCC1 (centres undefined) | inactive |
| O=C(OC1CN2CCC1CC2)c1ccccc1 (centres undefined) | inactive |

| Compound | outcome |
| --- | --- |
| CC(=O)NC(SC(=S)N(CC(C)C)CC(C)C)C(Cl)(Cl)Cl (centres undefined) | inactive |
| Cc1ccc(OP(=O)(Nc2ccccn2)Oc2ccc(C)cc2)cc1 | inactive |
| COC(=O)c1cc2c(s1)N=C(c1ccccc1)N(C)P2(=O)N1CCOCC1 (centres undefined) | inactive |
| CCCCCOc1ccc(NP(C)(=O)Oc2ccc(Cl)cc2Cl)cc1 (centres undefined) | inactive |
| O=[N+]([O-])c1cc([N+](=O)[O-])c(OC2CCCCC2O)c([N+](=O)[O-])c1 (centres undefined) | inactive |
| CN(C)C(=O)Oc1noc2ccccc12 | inactive |
| Cc1ccccc1OP(=O)(Nc1ccccn1)Oc1ccccc1C | inactive |
| CP(=O)(Nc1ccccc1)Oc1ccc(F)cc1 (centres undefined) | inactive |
| CN(C)C1(CNC(=O)c2ccc(Cl)c(S(N)(=O)=O)c2)CCCCC1 | inactive |
| O=P(Nc1ccccn1)(c1ccc(Br)cc1)c1ccc(Br)cc1 | inactive |
| COc1ccc(OP(C)(=O)Nc2cccc(Br)c2)cc1 (centres undefined) | inactive |
| COc1ccc(NP(C)(=O)Oc2ccccc2OC)cc1 (centres undefined) | inactive |
| C[C@H]1OP(=O)(Oc2ccccc2)[C@H](O)[C@H](O)[C@H]1N=[N+]=[N-] (some centres undefined) | inactive |
| O=P(Nc1nc2ccccc2s1)(c1ccccc1)c1ccccc1 | inactive |
| CN(C)CCOC(=O)C(O)(c1ccccc1)C1CCCCC1 (centres undefined) | inactive |
| Cc1cc(-c2cccc3ccccc23)c(C)cn1.O=[N+]([O-])c1cc([N+](=O)[O-])c(O)c([N+](=O)[O-])c1 | inactive |
| O=[N+]([O-])c1cc([N+](=O)[O-])c(NCC2CCS(=O)(=O)C2)c([N+](=O)[O-])c1 (centres undefined) | inactive |
| O=[As](O)(c1ccccc1)c1ccc(O)cc1 | inactive |
| CC(=O)NC(SC(=S)N(C)C)C(Cl)(Cl)Cl (centres undefined) | inactive |
| O=[N+]([O-])c1ccc(OP2(=O)COCCO2)cc1 (centres undefined) | inactive |
| O=[N+]([O-])c1ncn(CCn2cnc([N+](=O)[O-])n2)n1 | inactive |
| O=[N+]([O-])c1ccc(O)c(/C=N/Nc2ccc([N+](=O)[O-])cc2[N+](=O)[O-])c1 | inactive |
| O=C(OC1CN2CCC1CC2)c1cccc(Cl)c1 (centres undefined) | inactive |

| Compound | outcome |
| --- | --- |
| C(Cc1nn[nH]n1)Cc1nn[nH]n1 | inactive |
| Nc1ccc([As](=O)(O)c2ccc([N+](=O)[O-])cc2)cc1 | inactive |
| O=P(Nc1nccs1)(c1ccccc1)c1ccccc1 | inactive |
| CC(C)C(=O)NC(Sc1ccccc1)C(Cl)(Cl)Cl (centres undefined) | inactive |
| CP(=O)(Nc1ccc(SC(F)(F)F)cc1)Oc1ccc(F)cc1 (centres undefined) | inactive |
| c1nnnn1CCn1cnnn1 | inactive |
| CCOP(C)(=S)SCC(=O)NC(C)(CC)C(=O)O (centres undefined) | inactive |
| CP(=O)(Nc1ccc2c(c1)OCCO2)Oc1ccccc1 (centres undefined) | inactive |
| COc1ccc(OP(C)(=O)Nc2ccc(Br)cc2)cc1 (centres undefined) | inactive |
| COc1ccc(C2=NCC(CBr)S2)cc1 (centres undefined) | inactive |
| CCN(CC)CC(O)COC(=O)C(O)(c1ccccc1)C1CCCCC1 (centres undefined) | inactive |
| CCc1ccc(OP(C)(=O)Nc2cccnc2)cc1 (centres undefined) | inactive |
| O=[N+]([O-])c1cc([N+](=O)[O-])c(CCNc2ccccc2)c([N+](=O)[O-])c1 | inactive |
| CCc1nc2c(n1)c1c(non1O)c1c2no[n+]1[O-] | inactive |
| CP(=O)(Oc1ccccc1)N1CCOC1=O (centres undefined) | inactive |
| Cc1ccc(NP(=O)(Oc2ccccc2)Oc2ccccc2)nc1 | inactive |
| O=C(OCCCN1CCCC1)C(O)(c1ccccc1)C1CCCCC1 (centres undefined) | inactive |
| CC(=O)N1C2C3N(C(C)=O)C1C1N(C(C)=O)C(C(N1C(C)=O)N3C(C)=O)N2C(C)=O | inactive |
| O=[N+]([O-])c1cccc2n[nH]nc12 | inactive |
| COc1ccccc1OP(C)(=O)Nc1c(C)n(C)n(-c2ccccc2)c1=O (centres undefined) | inactive |
| CP(=O)(Nc1ccc(Cl)cc1)Oc1ccc(F)cc1 (centres undefined) | inactive |
| CCN(/C(=N/P(=O)(N1CCOCC1)N1CCOCC1)N1CCOCC1)c1ccc(OC)cc1 | inactive |
| C[N+]1=C2C=CC=CC=C2SC12C([N+](=O)[O-])=CC([N+](=O)[O-])=C[C-]2[N+](=O)[O-] (centres undefined) | inactive |

| Compound | outcome |
| --- | --- |
| COc1ccccc1OP(C)(=O)Nc1ccccc1Br (centres undefined) | inactive |
| Nc1ccc([As](=O)(O)c2ccc(N)cc2)cc1 | inactive |
| CC(C)(C)c1ccc(OP(C)(=O)O)cc1 | inactive |
| CC1CCN(C(=O)Oc2c(Cl)cc(Cl)c3cccnc23)CC1 | inactive |
| CN(C)C(=O)OCCc1n(C)cc[n+]1C | inactive |
| CC(C)=N/N=C(\N)N[N+](=O)[O-] | inactive |
| CN(C)C(=O)c1c([N+](=O)[O-])cc([N+](=O)[O-])cc1[N+](=O)[O-] | inactive |
| Nc1ccc2c(ccc3cccnc32)n1.O=[N+]([O-])c1cc([N+](=O)[O-])c(O)c([N+](=O)[O-])c1 | inactive |
| CP(=O)(OC12CC3CC(CC(C3)C1)C2)OC12CC3CC(CC(C3)C1)C2 | inactive |
| O=C(Nc1cc([As](=O)(O)O)ccc1O)c1ccccc1 | inactive |
| CCOC(=O)c1ccc(NP(C)(=O)Oc2ccc(Cl)cc2)cc1 (centres undefined) | inactive |
| O=[N+]([O-])c1ncn(CCn2ncnc2[N+](=O)[O-])n1 | inactive |
| CC(C)(C)C(=O)NC(Sc1ccncn1)C(Cl)(Cl)Cl (centres undefined) | inactive |
| O=C(O)CNc1ccc([As](=O)(O)O)cc1 | inactive |
| O=[N+]([O-])c1cccc(NC2=NCC(CBr)S2)c1 (centres undefined) | inactive |
| O=P(Nc1nc2ccc(Cl)cc2s1)(c1ccccc1)c1ccccc1 | inactive |
| Cc1cc(C)cc(OP(C)(=O)Nc2cccc(C(F)(F)F)c2)c1 (centres undefined) | inactive |
| CC(=O)Nc1ccc([As](=O)(O)O)cc1 | inactive |
| O=C(O)c1ccccc1[As](=O)(O)O | inactive |
| COc1ccc(OP(C)(=O)Nc2ccccc2Br)cc1 (centres undefined) | inactive |
| COc1ccccc1OP(C)(=O)Nc1ccc(C)c(C)c1 (centres undefined) | inactive |
| CN(C(=O)Cc1ccc(Cl)c(Cl)c1)[C@H]1CCCC[C@@H]1N1CCCC1 | inactive |
| Cc1ccc(NP(=O)(Oc2ccccc2F)Oc2ccccc2F)nc1 | inactive |

| Compound | outcome |
| --- | --- |
| Cc1cc(SC(NC(=O)c2ccc(F)cc2)C(Cl)(Cl)Cl)ncn1 (centres undefined) | inactive |
| CCOP(=O)(Nc1ccccc1)OCC | inactive |
| O=[N+]([O-])c1cc([N+](=O)[O-])c(CCN2CCOCC2)c([N+](=O)[O-])c1 | inactive |
| Cc1nc2ccc3ccccc3c2o1.O=[N+]([O-])c1cc([N+](=O)[O-])c(O)c([N+](=O)[O-])c1 | inactive |
| CP(=O)(Nc1ccc(Cl)cc1Cl)Oc1ccccc1 (centres undefined) | inactive |
| CP(=O)(OCCOc1ccccc1)OCCOc1ccccc1 | inactive |
| Nc1cccc2ccc([As](=O)(O)O)cc12 | inactive |
| CCN(N=Nc1nonc1N)c1nonc1N | inactive |
| Cc1ccc(N/C(=N/P(=O)(N2CCOCC2)N2CCOCC2)N2CCOCC2)cc1 | inactive |
| COc1ccccc1OP(C)(=O)Nc1ccc(Br)cc1 (centres undefined) | inactive |
| NC(=O)c1cc([N+](=O)[O-])cc([N+](=O)[O-])c1N | inactive |
| CN1CCCC(OC(=O)C(c2ccccc2)c2ccccc2)C1 (centres undefined) | inactive |
| CN(C)CCOC(=O)C(O)(c1ccccc1)C1CCCC1 (centres undefined) | inactive |
| Clc1ccc(Cl)c(NC2=NCC(CBr)S2)c1 (centres undefined) | inactive |
| Cc1ccc(OP(=O)(Nc2nccs2)Oc2ccc(C)cc2)cc1 | inactive |
| COc1ccccc1OP(=O)(Nc1ccc(C)cn1)Oc1ccccc1OC | inactive |
| COc1ccc(OP(C)(=O)Nc2ccccn2)cc1 (centres undefined) | inactive |
| O=C(NC(Sc1ccncn1)C(Cl)(Cl)Cl)c1ccccc1 (centres undefined) | inactive |
| Cc1c2non([O-])c-2c(C)[n+](=O)[n+]1[O-] | inactive |
| Oc1ccccc1CNc1ccccn1 | inactive |
| Nc1cc(N)c2nonc2c1[N+](=O)[O-] | inactive |
| Cc1c(NP(C)(=O)Oc2ccc(C(C)C)cc2)c(=O)n(-c2ccccc2)n1C (centres undefined) | inactive |
